UUG fidelity: alters start codon recognition fidelity in yeast | S. cerevisiae UUG-firefly luciferase reporter, luminescence/redox ratio | activity score, % at 18.7 µM | hit rate 0.13% among 350,000 | AID 602363;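 active means replicate mean at a twofold rise or more, about +100% in these data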;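 further: firefly luciferase made from a UUG start codon reports start codon fidelity; reporter light over untreated wells divided by growth signal over untreated wells; some hits fall short of that in this replicate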
Statin myotox sup: suppressors of statin myotoxicity in C2C12 myotubes, primary screen, cell-based, single point, plate reader; C2C12 myotubes + simvastatin, ATP luminescence, 48 h; scaled: DMSO 0, geranylgeraniol control 100; rescue of ATP level, % at 7.49 µM; actives 0.78% (n = 330,000);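 active = mean ATP rescue above about 67%, or every replicate alone reaching that limit, limit read from the data, passing the limit was not always enough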;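 also: myotubes were challenged with 10 µM simvastatin during compound exposure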
Cneo AK release: Cryptococcus neoformans cell lysis inducers, primary screen, AK release luminescence, single concentration. AID 651654, 2012. actives 0.2% (n = 360,000). lysis activity, % at 15 µM. C. neoformans lysis, adenylate kinase release luminescence, 4 h; normalised: neutral wells 0, clomiphene wells 100;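 active = mean lysis activity across replicates of at least 80%, whatever share of replicates individually reach that level; inactive = mean lysis activity below 80%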
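Signal: Adenylate kinase release luminescence | Assay system: Log-phase Cryptococcus neoformans yeast cells | Input: Cells at 5 × 10^6 per mL | Buffer or medium: Fresh YPD growth medium | Compound: Single dose | Schedule: Static 4 h at 37 °C with compound, 1 h detection | Controls: Clomiphene | Read-out: Luminescence rise reflecting yeast cell lysis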
miR122 inh: miR-122 Renilla sensor signal increase in Huh7, primary screen, miR-122 inhibitor project, cell-based, single point, plate reader; actives 0.3% (n = 340,000); activation (reporter increase), % at 12.5 µM; AID 602342, 2012; Huh7 miR-122 Renilla luciferase sensor, 48 h; neutral wells = 0, positive control = 100;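 active = mean replicate activation score at least 90 and every replicate individually at or above 90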;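 also: higher luciferase means less miR-122 activity so hits act as miR-122 inhibitors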
Numbers without * were called inactive; . = no result; [ ] = dose if it differs, or a comment. This is a sample that favours compounds with a hit; in the whole collection about 1.2% have one here.

[1] Cc1ccc(S(=O)(=O)Nc2ccc3c(c2)C(=O)N([C@H](C)CO)C[C@H](C)[C@H](CN(C)C(=O)Nc2ccc(F)cc2)O3)cc1
[2] O=C(NC1CCCCC1)N[C@H]1CC[C@@H](CC(=O)N2CCOCC2)O[C@@H]1CO
[3] O=C(NC1CCCC1)C(c1ccccc1F)N(C(=O)Cc1cccs1)c1ccc2c(c1)OCCO2 (centres undefined)
[4] COc1ccc(S(=O)(=O)Nc2ccc3c(c2)CC(=O)N([C@@H](C)CO)C[C@@H](C)[C@H](CN(C)Cc2ccncc2)O3)cc1
[5] C[C@H]1CN([C@@H](C)CO)C(=O)c2cc(C#Cc3ccc(F)cc3)cnc2O[C@@H]1CN(C)Cc1ccccn1
[6] C[C@H](CO)N1C[C@H](C)[C@@H](CN(C)Cc2ccc(C(F)(F)F)cc2)Oc2ccc(NS(C)(=O)=O)cc2C1=O
[7] COc1ccc(C(=O)NC2CCCCCC2)cc1S(=O)(=O)N1CCCc2ccccc21
[8] COc1ccc(C(=O)Nc2nc3c(s2)CCCC3)cc1S(=O)(=O)N1CCCc2ccccc21

Assay by compound,1,2,3,4,5,6,7,8
UUG fidelity,-2,-13,.,-7,-9,6,-13,-10
Statin myotox sup,19,2,2,-5,.,-60,.,.
Cneo AK release,-1,0,.,1,1,0,-3,3
miR122 inh,2[16.7 µM],.,172*,15[16.7 µM],-22[16.7 µM],3[16.7 µM],8,115*

[9] Cc1cc(C)c2c(c1)/C(=N/NS(=O)(=O)c1ccccc1)CCC2
[10] CCCN1C[C@H](C)[C@@H](OC)CN(C)C(=O)c2cc(NC(=O)c3cnccn3)ccc2OC[C@@H]1C
[11] CCN1[C@@H]2c3ccc(-c4ccccc4)c(=O)n3C[C@H]1[C@H](CO)[C@H]2C(=O)Nc1ccccc1
[12] CC(=O)N1[C@@H]2c3ccc(-c4ccccc4)c(=O)n3C[C@H]1[C@H](CO)[C@H]2C(=O)Nc1ccccc1
[13] CCC(=O)N1[C@@H]2Cn3c(ccc(C4=CCCCC4)c3=O)[C@H]1[C@@H](C(=O)N[C@H](C)c1ccccc1)[C@@H]2CO
[14] CCC(=O)N1[C@@H]2c3ccc(C4=CCCC4)c(=O)n3C[C@H]1[C@H](CO)[C@H]2C(=O)N[C@H](C)c1ccccc1
[15] Cc1noc(C)c1S(=O)(=O)N1CCC(C(=O)N2CCN(c3ccccc3Cl)CC2)CC1
[16] Cc1cccc(N2CCN(C(=O)C3CCN(S(=O)(=O)c4c(C)noc4C)CC3)CC2)c1C

Assay by compound,9,10,11,12,13,14,15,16
UUG fidelity,-7,.,2,.,26,.,0,1
Statin myotox sup,136*,-19,5,20,-15,-14,137*,9
Cneo AK release,2,49,3,87*,93*,1,0,6
miR122 inh,1,.,-2[16.7 µM],.,-5[16.7 µM],3[16.7 µM],-4,-9

[17] CC(=O)N1c2c(cc(Br)cc2S(=O)(=O)NCC2COc3ccccc3O2)CC1C (centres undefined)
[18] CC(C)CC#Cc1ccc2c(c1)O[C@H](CN(C)C(=O)c1ccccc1F)[C@@H](C)CN([C@H](C)CO)S2(=O)=O
[19] O=S(=O)(/N=C(/Nc1ccc(Cl)c(S(=O)(=O)N2CCOCC2)c1)c1ccc(F)cc1)c1ccccc1
[20] O=C(Nc1ccccc1)Nc1ccc(Cl)c(S(=O)(=O)N2CCOCC2)c1
[21] COc1ccc(S(=O)(=O)N(CC(=O)N2CCCCCC2)c2ccccc2OC)cc1
[22] CCCOc1ccccc1C1CC(=O)NC2=C1C(=O)CCC2 (centres undefined)
[23] CCCCOc1ccccc1C1CC(=O)NC2=C1C(=O)CCC2 (centres undefined)
[24] O=c1c2ccccc2nc(-c2ccc(Cl)cc2Cl)n1CCCn1ccnc1

Assay by compound,17,18,19,20,21,22,23,24
UUG fidelity,-3,-11,6,0,-4,-15,0,-9
Statin myotox sup,17,-50,-15,-5,99*,-52,.,100*
Cneo AK release,1,4,-5,-2,1,2,1,-1
miR122 inh,120*,43[16.7 µM],121*,-3,11,59,109*,58

Profiles from above. Order of screens: UUG fidelity | Statin myotox sup | Cneo AK release | miR122 inh
Entry for `COc1ccc(S(=O)(=O)N(CC(=O)N2CCCCCC2)c2ccccc2OC)cc1` = -4 | 99* | 1 | 11
Entry for `O=c1c2ccccc2nc(-c2ccc(Cl)cc2Cl)n1CCCn1ccnc1` = -9 | 100* | -1 | 58
Entry for `O=C(Nc1ccccc1)Nc1ccc(Cl)c(S(=O)(=O)N2CCOCC2)c1` = 0 | -5 | -2 | -3

(listing goes on)
[25] COc1ccc(-c2csc3ncnc(N4CCN(S(=O)(=O)c5cccc(Br)c5)CC4)c23)cc1
[26] O=C(C[C@H]1CC[C@@H]2[C@H](COC[C@@H](O)CN2C(=O)Nc2cc(Cl)cc(Cl)c2)O1)NCC1CCCCC1
[27] CCCCc1nc(N2CCOCC2)c(C#N)c2c1COC(C)(C)C2
[28] CN(C)C(=O)C[C@H]1C[C@H]2c3cc(NC(=O)c4ccc5c(c4)OCO5)ccc3O[C@H]2[C@@H](CO)O1
[29] O=C(NCc1ccco1)C(c1ccncc1)N(C(=O)Cc1cccs1)c1ccccc1 (centres undefined)
[30] O=C(NCc1ccco1)C(c1ccccc1)N(C(=O)Cc1cccs1)c1ccccc1F (centres undefined)
[31] O=C(C[C@H]1C[C@H]2c3cc(NC(=O)CC4CC4)ccc3O[C@H]2[C@@H](CO)O1)NCc1ccncc1
[32] O=C(c1ccccc1)c1nn(-c2ccccc2)c(=O)cc1C(F)(F)F

Assay by compound,25,26,27,28,29,30,31,32
UUG fidelity,-18,.,-2,-3,6,-17,-13,-9
Statin myotox sup,77*,-30,128*,-5,-3,98*,-9,19
Cneo AK release,2,2,5,15,1,-2,10,-2
miR122 inh,1,-12[16.7 µM],-1,4[16.7 µM],-4,.,-2[16.7 µM],15

[33] O=C(c1cccc(Cl)c1)c1nn(-c2ccccc2)c(=O)cc1C(F)(F)F
[34] C[C@H](CO)N1C[C@H](C)[C@H](CN(C)Cc2ccc(Cl)c(Cl)c2)Oc2ccc(NC(=O)CCCCCC(=O)Nc3ccccc3N)cc2CC1=O
[35] C[C@@H]1CN([C@H](C)CO)C(=O)Cc2cc(NC(=O)CCCCCC(=O)Nc3ccccc3N)ccc2O[C@@H]1CN(C)Cc1ccc(Cl)c(Cl)c1
[36] Cc1ccccc1N1C(N)=NC(N)=NC1(C)C
[37] Cc1ccc(N2C(N)=NC(N)=NC2(C)C)c(C)c1
[38] CN(C)C(=O)c1ccc(-c2ccc([C@H]3[C@H](CO)N4CCCCN(CCC(F)(F)F)C[C@@H]34)cc2)cc1
[39] COC(=O)c1ccc(NC(=O)C2C3C=CC(O3)C2C(=O)O)cc1 (centres undefined)
[40] O=C(C[C@@H]1CC[C@H](NC(=O)Cc2ccccn2)[C@H](CO)O1)NCCc1ccccc1
[41] C[C@@H]1CN([C@@H](C)CO)C(=O)c2cccc(NS(=O)(=O)c3ccc(F)cc3)c2O[C@@H]1CN(C)Cc1ccc(C(=O)Nc2ccccc2N)cc1
[42] C[C@@H]1CN([C@H](C)CO)C(=O)c2cccc(NS(=O)(=O)c3ccc(Cl)cc3)c2O[C@@H]1CN(C)Cc1ccc(C(=O)Nc2ccccc2N)cc1
[43] C[C@H]1CN([C@@H](C)CO)C(=O)c2cccc(NS(=O)(=O)c3ccc(Cl)cc3)c2O[C@H]1CN(C)Cc1ccc(C(=O)Nc2ccccc2N)cc1

Assay by compound,33,34,35,36,37,38,39,40,41,42,43
UUG fidelity,-5,4,8,1,-19,15,-15,1,20,16,12
Statin myotox sup,105*,139*,85*,-5,110*,13,90*,0,-45,.,.
Cneo AK release,1,-1,0,50,0,96*,4,81*,5,3,-3
miR122 inh,-9,14[16.7 µM],-9[16.7 µM],-3,0,86[16.7 µM],6,.,94*[16.7 µM],26[16.7 µM],10[16.7 µM]
